Measured values: US10442819B2, “Tricyclic compounds as inhibitors of mutant IDH enzymes” (Merck Sharp & Dohme Corp., priority 2014, dated 2019)

By UniProt entry, the sequences of proteins in these tests, tags left out.
UniProt O75874, whole entry R132H: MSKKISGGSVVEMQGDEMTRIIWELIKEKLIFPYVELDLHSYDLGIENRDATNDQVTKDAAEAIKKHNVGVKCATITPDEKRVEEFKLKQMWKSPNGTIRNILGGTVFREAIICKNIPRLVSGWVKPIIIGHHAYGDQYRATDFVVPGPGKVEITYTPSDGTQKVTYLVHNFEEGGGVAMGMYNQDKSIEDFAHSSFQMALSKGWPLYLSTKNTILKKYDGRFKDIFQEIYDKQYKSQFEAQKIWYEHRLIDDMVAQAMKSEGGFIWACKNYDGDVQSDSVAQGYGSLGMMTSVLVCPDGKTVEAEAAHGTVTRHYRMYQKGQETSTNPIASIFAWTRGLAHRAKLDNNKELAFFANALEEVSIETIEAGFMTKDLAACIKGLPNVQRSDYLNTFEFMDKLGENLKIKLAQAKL

Target: R132H mutant IDH1 enzyme (Homo sapiens (Human), UniProt O75874, R132H)
Assay: R132H IDH1 Enzymatic Assay
Format: biochemical
Conditions: R132H mutant IDH1 enzyme 1.5 nM final; luminescence readout; read-out: IC50

| IC50 [nM] | SMILES |
| --- | --- |
| 30 | COC1C[C@@H]2CC[C@H]1CN2c1ccc2c(c1)N(C(=O)[C@H]1CC[C@H](OC(C)C)CC1)Cc1cccnc1N2 (single isomer, unassigned) [Example 339] |
| 50 | CC(C)O[C@H]1CC[C@H](C(=O)N2Cc3cccnc3Nc3ccc(N4CCOCC4)cc32)CC1 [Example 110, 6-{[trans-4-(1-methylethoxy)cyclohexyl]-carbonyl}-8-morpholin-4-yl-6,11-dihydro-5H-pyrido[2,3-b][1,5]benzodiazepine] |
| 49 | CC(C)(N1CCC(C(=O)N2Cc3cccnc3Nc3ccc(N4CCOCC4)cc32)CC1)C(F)(F)F [Example 38, 8-morpholin-4-yl-6-{[1-(2,2,2-trifluoro-1,1-dimethylethyl)piperidin-4-yl]carbonyl}-6,11-dihydro-5H-pyrido[2,3-b][1,5]benzodiazepine] |
| 149 | CO[C@H]1CC[C@H](C(=O)N2Cc3cccnc3Nc3ccc(-c4cnn(C5CC5)c4)cc32)CC1 [Example 370, 8-(1-cyclopropyl-1H-pyrazol-4-yl)-6-[(trans-4-methoxycyclohexyl)carbonyl]-6,11-dihydro-5H-pyrido[2,3-b][1,5]benzodiazepine] |
| 13 | O=C(N1Cc2cccnc2Nc2ccc(N3CC4CCC3CO4)cc21)C1(F)CCN(CC(F)(F)F)CC1 (stereo not shown) [Example 345, 6-{[4-fluoro-1-(2,2,2-trifluoroethyl)piperidin-4-yl]carbonyl}-8-(2-oxa-5-azabicyclo[2.2.2]oct-5-yl)-6,11-dihydro-5H-pyrido[2,3-b][1,5]benzodiazepine] |
| 489 | C[C@H]1CC(F)(F)CC[C@@H]1C(=O)N1Cc2cccnc2Nc2ccc(N3CCOCC3)cc21 [Example 76, 6-{[(1S,2S)-4,4-difluoro-2-methylcyclohexyl]carbon-yl}-8-morpholin-4-yl-6,11-dihydro-5H-pyrido[2,3-b][1,5]benzodiazepine] |
| 73 | CC(C)(C#N)c1ccc2c(c1)N(C(=O)[C@H]1CC[C@H](NCC(F)(F)F)CC1)Cc1cccnc1N2 [Example 435, 2-Methyl-2-[6-({trans-4-[(2,2,2-trifluoroethyl)amino]cyclohexyl}carbonyl)-6,11-dihydro-5H-pyrido[2,3-b][1,5]benzodiazepin-8-yl]propanenitrile] |
| 145 | CO[C@H]1CC[C@H](C(=O)N2Cc3cccnc3Nc3ccc(C4=CCN(C)C(=O)C4)cc32)CC1 [Example 373, 4-{6-[(trans-4-methoxycyclohexyl)carbonyl]-6,11-dihydro-5H-pyrido[2,3-b][1,5]benzodiazepin-8-yl}-1-methyl-3,6-dihydropyridin-2(1H)-one] |
| 19 | COC1CCC(C(=O)N2Cc3cccnc3Nc3ccc(N4C(=O)OC[C@@H]4C(C)C)cc32)CC1 (stereo partly drawn) [Example 491, (4S)-3-{6-[(4-methoxycyclohexyl)carbonyl]-6,11-dihydro-5H-pyrido[2,3-b][1,5]benzodiazepin-8-yl}-4-(1-methylethyl)-1,3-oxazolidin-2-one] |
| 69 | CC(C)O[C@H]1CC[C@H](C(=O)N2Cc3cccnc3Nc3ccc(C4OCCOC4C)cc32)OC1 (stereo partly drawn) [Example 35, ((2R,5S)-5-isopropoxytetrahydro-2H-pyran-2-yl)(8-(3-methyl-1,4-dioxan-2-yl)-5,11-dihydro-6H-benzo[b]pyrido[2,3-e][1,4]diazepin-6-yl)methanone] |
| 285 | CO[C@H]1CC[C@H](C(=O)N2Cc3cccnc3Nc3ccc(N4C[C@@H]5C[C@H]4CO5)cc32)CC1 [Example 283, 6-[(trans-4-methoxycyclohexyl)carbonyl]-8-[(1S,4S)-2-oxa-5-azabicyclo[2.2.1]hept-5-yl]-6,11-dihydro-5H-pyrido[2,3-b][1,5]benzodiazepine] |
| 65 | CC(C)O[C@H]1CC[C@H](C(=O)N2Cc3cccnc3Nc3ccc([C@H]4CC[C@@H](C)O4)cc32)OC1 (single isomer, unassigned) [Example 534] |
| 931 | CC1CCCC(C(=O)N2Cc3cccnc3Nc3ccccc32)C1 (stereo not shown) [Example 59, 6-[(3-methylcyclohexyl)carbon-yl]-6,11-dihydro-5H-pyrido[2,3-b][1,5]benzodiazepine] |
| 30 | O=C([C@H]1CC[C@H](NC2(C(F)(F)F)CC2)CC1)N1Cc2cccnc2Nc2ccc(N3CC4CCC3CO4)cc21 (stereo partly drawn) [Example 312, trans-4-{[8-(2-oxa-5-azabicyclo[2.2.2]oct-5-yl)-5,11-dihydro-6H-pyrido[2,3-b][1,5]benzodiazepin-6-yl]carbonyl}-N-[1-(trifluoromethyl)cyclopropyl] cyclohexanamine] |
| 115 | CC(C)[C@H](N[C@H]1CC[C@H](C(=O)N2Cc3cccnc3Nc3ccc(N4CCOCC4)cc32)CC1)C(F)(F)F [Example 454, trans-N-[(1S)-2-methyl-1-(trifluoromethyl)propyl]-4-[(8-morpholin-4-yl-5,11-dihydro-6H-pyrido[2,3-b][1,5]benzodiazepin-6-yl)carbonyl]cyclohexanamine] |
| 189 | CO[C@H]1CC[C@H](C(=O)N2Cc3cccnc3Nc3ccc(S(=O)(=O)C4CC4)cc32)CC1 [Example 433, 8-(cyclopropylsulfonyl)-6-[(trans-4-methoxycyclohexyl)carbonyl]-6,11-dihydro-5H-pyrido[2,3-b][1,5]benzodiazepine] |
| 107 | CO[C@H]1CC[C@H](C(=O)N2Cc3cccnc3Nc3ccc(-c4ccncc4)cc32)CC1 [Example 185, 6-[(trans-4-methoxycyclohexyl)carbonyl]-8-pyridin-4-yl-6,11-dihydro-5H-pyrido[2,3-b][1,5]benzodiazepine] |
| 19 | CC(C)O[C@@H]1CO[C@](C)(c2ccc3c(c2)N(C(=O)[C@H]2CC[C@H](OC(C)C)CO2)Cc2cccnc2N3)C1 (single isomer, unassigned) [Example 148] |
| 155 | O=C([C@H]1CC[C@@H](C2CCOCC2)CC1)N1Cc2cccnc2Nc2ccc(N3CCOCC3)cc21 [Example 130, 8-morpholin-4-yl-6-{[cis-4-(tetrahydro-2H-pyran-4-yl)cyclohexyl]carbonyl}-6,11-dihydro-5H-pyrido[2,3-b][1,5]benzodiazepine] |
| 63 | O=C([C@H]1CC[C@@H](NCC(F)(F)F)CC1)N1Cc2cccnc2Nc2ccc([C@H]3CCCOC3)cc21 [Example 378, cis-4-({8-[(3R)-tetrahydro-2H-pyran-3-yl]-5,11-dihydro-6H-pyrido[2,3-b][1,5]benzodiazepin-6-yl}carbonyl)-N-(2,2,2-trifluoroethyl)cyclohexanamine] |
| 251 | CO[C@H]1CC[C@H](C(=O)N2Cc3cccnc3Nc3ccc(N4CCn5nc(C)cc5C4)cc32)CC1 [Example 270, 6-[(trans-4-methoxycyclohexyl)carbonyl]-8-(2-methyl-6,7-dihydropyrazolo[1,5-a]pyrazin-5(4H)-yl)-6,11-dihydro-5H-pyrido[2,3-b][1,5]benzodiazepine] |
| 155 | CO[C@@H]1CC[C@@H](C(=O)N2Cc3cccnc3Nc3ccc(N4CCOCC4)cc32)C[C@@H]1C [Example 106, 6-{[(1R,3S,4R)-4-methoxy-3-methylcyclohexyl]carbon-yl}-8-morpholin-4-yl-6,11-dihydro-5H-pyrido[2,3-b][1,5]benzodiazepine] |
| 449 | C[C@@H](N[C@H]1CC[C@H](C(=O)N2Cc3cccnc3Nc3ccc(N4CCOCC4)cc32)CC1)C(F)(F)F [Example 441, trans-4-[(8-morpholin-4-yl-5,11-dihydro-6H-pyrido[2,3-b][1,5]benzodiazepin-6-yl)carbonyl]-N-[(1R)-2,2,2-trifluoro-1-methylethyl]cyclohexanamine] |
| 11 | CO[C@@H]1CO[C@](C)(c2ccc3c(c2)N(C(=O)[C@H]2CC[C@H](OC(C)C)CO2)Cc2cccnc2N3)C1 [Example 144, ((2R,5S)-5-isopropoxytetrahydro-2H-pyran-2-yl)(8-((2S,4S)-4-methoxy-2-methyltetrahydrofuran-2-yl)-5,11-dihydro-6H-benzo[b]pyrido[2,3-e][1,4]diazepin-6-yl)methanone] |
| 36 | CCON=C1CC(C(=O)N2Cc3cccnc3Nc3ccc(-c4cnn(C)c4)cc32)C1 (stereo not shown) [Example 398, 3-{[8-(1-methyl-1H-pyrazol-4-yl)-5,11-dihydro-6H-pyrido[2,3-b][1,5]benzodiazepin-6-yl]carbonyl}cyclobutanone O-ethyloxime] |
| 26 | CC(C)O[C@H]1CC[C@H](C(=O)N2Cc3cccnc3Nc3ccc(C4CC=CCO4)cc32)OC1 (stereo partly drawn) [Example 146, (8-(3,6-dihydro-2H-pyran-2-yl)-5,11-dihydro-6H-benzo[b]pyrido[2,3-e][1,4]diazepin-6-yl)((2R,5S)-5-isopropoxytetrahydro-2H-pyran-2-yl)methanone] |
| 59 | CCO[C@@H]1CC[C@@H](C(=O)N2Cc3cccnc3Nc3ccc(N4C[C@H]5CC[C@@H]4CO5)cc32)OC1 (single isomer, unassigned) [Example 335] |
| 8 | CC(C)O[C@H]1CC[C@H](C(=O)N2Cc3cccnc3Nc3ccc(S(=O)(=O)C4CC4)cc32)CC1 [Example 525, [8-(Cyclopropylsulfonyl)-5,11-dihydro-6H-pyrido[2,3-b][1,5]benzodiazepin-6-yl][trans-4-(propan-2-yloxy)cyclohexyl]methanone] |
| 440 | CO[C@H]1CC[C@H](C(=O)N2Cc3cccnc3Nc3ccc(N4CCC(F)CC4)cc32)CC1 [Example 221, 8-(4-fluoropiperidin-1-yl)-6-[(trans-4-methoxycyclohexyl)carbonyl]-6,11-dihydro-5H-pyrido[2,3-b][1,5]benzodiazepine] |

| SMILES | IC50 [nM] |
| --- | --- |
| CC(C)(C)O[C@H]1CC[C@H](C(=O)N2Cc3cccnc3Nc3ccc(N4CC5COCC(C4)O5)cc32)CC1 [Example 327, 6-[(trans-4-tert-butoxycyclohexyl)carbonyl]-8-(3,9-dioxa-7-azabicyclo[3.3.1]non-7-yl)-6,11-dihydro-5H-pyrido[2,3-b][1,5]benzodiazepine] | 32 |
| CC(C)(C)OC1CCN(C(=O)N2Cc3cccnc3Nc3ccc(N4CCOCC4)cc32)CC1 [Example 555, 6-[(4-tert-butoxypiperidin-1-yl)carbonyl]-8-morpholin-4-yl-6,11-dihydro-5H-pyrido[2,3-b][1,5]benzodiazepine] | 178 |
